Amino acid sequences for entries named in this document (tags omitted). Residues count along the entry.
UniProt O00206, 24-839: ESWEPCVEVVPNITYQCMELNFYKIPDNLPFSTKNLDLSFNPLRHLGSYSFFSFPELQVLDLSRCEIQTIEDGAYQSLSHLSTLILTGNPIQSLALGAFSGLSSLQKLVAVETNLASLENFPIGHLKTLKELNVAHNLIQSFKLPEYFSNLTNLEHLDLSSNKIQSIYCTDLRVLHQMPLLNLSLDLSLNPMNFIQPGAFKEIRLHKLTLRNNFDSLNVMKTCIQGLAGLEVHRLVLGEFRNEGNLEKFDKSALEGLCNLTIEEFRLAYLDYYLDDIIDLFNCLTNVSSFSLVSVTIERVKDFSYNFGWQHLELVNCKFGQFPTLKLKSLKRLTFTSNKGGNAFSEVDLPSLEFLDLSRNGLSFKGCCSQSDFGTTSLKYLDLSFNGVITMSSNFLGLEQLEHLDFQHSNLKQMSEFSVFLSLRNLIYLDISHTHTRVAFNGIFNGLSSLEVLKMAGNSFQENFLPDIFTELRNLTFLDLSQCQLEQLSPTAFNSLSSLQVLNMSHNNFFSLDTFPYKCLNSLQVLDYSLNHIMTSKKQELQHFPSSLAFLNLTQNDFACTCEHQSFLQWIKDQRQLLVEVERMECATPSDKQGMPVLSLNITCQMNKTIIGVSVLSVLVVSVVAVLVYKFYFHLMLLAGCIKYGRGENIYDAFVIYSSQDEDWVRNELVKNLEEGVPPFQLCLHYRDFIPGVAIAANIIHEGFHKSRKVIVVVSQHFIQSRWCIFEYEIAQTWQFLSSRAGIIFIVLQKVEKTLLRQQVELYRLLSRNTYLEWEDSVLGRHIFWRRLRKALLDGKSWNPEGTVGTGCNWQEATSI

According to patent US20160109459A1, “Compositions And Methods For Heparan Sulfate As A Biomarker For Transplant Rejection” (Duke University, priority 2012, published 2016):

Biological target: T1, human TLR4 (Homo sapiens, UniProt O00206)
T1 construct: expressed in transfected cells; host or cells: HEK 293 (gift from Dr. Michael Fessler, NIEHS)
Assay: IL-8 production by ELISA in HEK TLR4-MD2-CD14 cells
Format: cell-based
Conditions: PMB added to cultures
Method: HEK cell lines stably expressing CD14 and MD2 alone (HEK MD2-CD14), or co-expressed with human TLR2 (HEK TLR2-MD2-CD14) or human TLR4 (HEK TLR4-MD2-CD14) were transfected with a plasmid encoding firefly luciferase (F) under control of the NF-κB promoter along with a plasmid expressing Renilla luciferase (R) under control of the thymidine kinase promoter as a transfection control. Cell lines were cultured for 6 hours with media alone, LPS (100 ng/mL), HS (100 μg/mL), or Pam3CSK4 (2 μg/mL). FIG. 5A is a graph showing the ratio of F/R was measured by dual luciferase reporter assay to determine NF-κB activation of lysed cells, *p<0.05 compared with media alone. FIG. 5B is a graph showing results supernatants analyzed for IL-8 production by ELISA. FIG. 5C is a graph showing IL-8 production in response to LPS and HS+/−PMB in HEK TLR4-MD2-CD14 cells, *p>0.05. FIG. 5D is a graph showing +/− heparanase (Hpase) in HEK TLR4-MD2-CD14 cells, *p<0.05. Experiments were performed in triplicate or quadruplicate. Results are representative of two to three independent experiments. […]
A heterodimer of different TLRs is required for some PAMPs. […] The ratio of luminescence produced by firefly luciferase to Renilla luciferase (F/R) was then measured in response to media alone, LPS, HS, and Pam3CSK4. The production of IL-8, which is downstream of NF-κB activation, by ELISA was also measured. […]

polymyxin B [PMB, reference compound]
effect on IL-8 expression resulting from HS treatment: but not HS treatment
effect on IL-8 expression resulting from LPS treatment: inhibited
